Measured values as given in article PMC4598118 (PLoS ONE, 2015).

Chains of the proteins cited; added tags and fusions are not shown. Residues count along the entry.
UniProt Q6A2E2, 129-702 limits assumed: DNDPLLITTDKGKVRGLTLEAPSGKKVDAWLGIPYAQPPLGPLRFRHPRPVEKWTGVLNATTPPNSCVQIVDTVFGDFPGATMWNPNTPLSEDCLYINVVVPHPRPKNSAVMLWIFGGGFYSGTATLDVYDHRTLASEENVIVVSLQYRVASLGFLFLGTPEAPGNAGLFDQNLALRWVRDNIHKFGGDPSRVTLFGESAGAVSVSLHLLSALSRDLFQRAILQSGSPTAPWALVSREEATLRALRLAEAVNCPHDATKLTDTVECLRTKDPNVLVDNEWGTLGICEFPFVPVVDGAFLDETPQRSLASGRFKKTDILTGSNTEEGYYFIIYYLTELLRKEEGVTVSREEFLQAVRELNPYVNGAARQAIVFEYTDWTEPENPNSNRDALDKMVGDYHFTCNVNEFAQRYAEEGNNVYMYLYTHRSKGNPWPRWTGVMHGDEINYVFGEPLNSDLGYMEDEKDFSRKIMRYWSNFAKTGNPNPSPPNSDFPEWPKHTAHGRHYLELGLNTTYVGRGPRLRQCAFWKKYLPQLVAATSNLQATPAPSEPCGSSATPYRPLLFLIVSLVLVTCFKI

Each molecule was assayed against Aedes aegypti AChE1 (AaAChE1) (Aedes aegypti, UniProt Q6A2E2) (assay: Michaelis-Menten kinetics, Ellman assay). Details: from Vmax and VX active site titration.
Type: biochemical
Molecule `CCC(=O)SCC[N+](C)(C)C` [PTChI, propionylthiocholine iodide] has a Kcat of 92 s⁻¹.
In the case of `CC(=O)SCC[N+](C)(C)C` [ATChI, acetylthiocholine iodide], the Kcat is reported as 140 s⁻¹.
`CCCC(=O)SCC[N+](C)(C)C` [BTChI, butyrylthiocholine iodide] gave a Kcat of 13 s⁻¹.
